Measurements taken from patent US11806393B2, “Flavivirus peptide sequences, epitopes, and methods and uses thereof” (priority 2017, dated 2023).

Legend:
Format in all cases: cell-based, mouse
CD8+ T cells [1] = assay: IFNγ ICS, DENV2 S221-infected Ifnar-/- HLA-B*0702 transgenic mice; settings: HLA-B*0702 mice
CD8+ T cells [2] = assay: IFNγ ELISPOT, ZIKV-infected Ifnar-/- HLA-B*0702 transgenic mice; settings: HLA-B*0702 mice
CD3+CD8+ T cells = assay: IFNγ ICS, ZIKV-infected Ifnar-/- HLA-B*0702 transgenic mice; settings: HLA-B*0702 mice
CD8+ T cells [3] = assay: IFNγ ELISPOT, DENV2 S221-infected Ifnar-/- HLA-B*0702 transgenic mice; settings: HLA-B*0702 mice, 7 days after 2×10^4 FFU DENV2 S221
CD44+CD62L- CD8+ T cells = assay: ICS, peptide-immunized Ifnar-/- HLA-B*0702 mice challenged with ZIKV; settings: mice immunized with the 4 ZIKV/DENV cross-reactive peptides, day 3 after ZIKV challenge

Sequence: APTRVVAAEM [FSS/MR-NS3206-215]
- % IFNγ+ CD8+ T cells, S221 (CD8+ T cells [1]; 7 days after DENV2 S221, ICS): (0.33%)
- ZIKV/DENV cross-reactivity in DENV2-infected mice (IFNγ ELISPOT and IFNγ ICS) (CD8+ T cells [1]; DENV2 S221, 7 days): positive in both IFNγ ELISPOT and IFNγICS assays
- SFC/10^6 CD8+ T cells, FSS13025 (CD8+ T cells [2]; 7 days after 1×10^2 FFU ZIKV FSS13025): 749 SFC/10^6 CD8+ T cells
- SFC/10^6 CD8+ T cells, MR766 (CD8+ T cells [2]; 7 days after 1×10^2 FFU ZIKV MR766): 724 SFC/10^6 CD8+ T cells
- immunodominance in IFNγ ELISPOT (CD8+ T cells [2]; immunodominant: >500 SFCs/10^6 CD8+ T cells, shared by both ZIKV strains): immunodominant
- % IFNγ+ CD8+ T cells, FSS13025 (CD3+CD8+ T cells; 7 days after ZIKV FSS13025, ICS): (0.3%)
- % IFNγ+ CD8+ T cells, MR766 (CD3+CD8+ T cells; 7 days after ZIKV MR766, ICS): (0.53%)
- SFC/10^6 CD8+ T cells, S221 (CD8+ T cells [3]): 606 SFC/10^6 CD8+ T cells
- percentage of epitope-specific cells among antigen experienced (CD44+CD62L-) CD8+ T cells (CD44+CD62L- CD8+ T cells): 0.66±0.24%
